Laboratory results reported in PubChem BioAssay AID1861 (The Scripps Research Institute Molecular Screening Center, 2009).
The list shows a part of the results, in another mix than the full data. Activity calls are given as the source filed them. Rule as the data show it: active = inhibition above about 16% (passing the limit was not always enough); inactive = the rest.

Sequences of proteins named here, by UniProt entry; tags and fusion partners are left off. A change or cut given only in a name is not applied to a line headed by its entry.
UniProt P48145: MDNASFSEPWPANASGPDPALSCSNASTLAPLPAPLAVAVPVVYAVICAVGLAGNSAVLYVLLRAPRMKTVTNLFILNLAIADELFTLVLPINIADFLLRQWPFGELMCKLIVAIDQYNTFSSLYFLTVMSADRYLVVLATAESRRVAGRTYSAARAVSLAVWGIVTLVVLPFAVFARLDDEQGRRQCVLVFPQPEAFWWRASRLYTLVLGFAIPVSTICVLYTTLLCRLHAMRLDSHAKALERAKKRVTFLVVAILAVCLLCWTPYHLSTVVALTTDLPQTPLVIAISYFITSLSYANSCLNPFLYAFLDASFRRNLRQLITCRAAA

Molecular target: Neuropeptides B/W receptor type 1 (Homo sapiens) (UniProt P48145)
Assay: GPR7 receptor antagonists, primary screen, cell-based, fluorescence, single concentration (AID 1861);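 also: cells stimulated with the agonist NPW; 0% = agonist with vehicle and 100% = vehicle without agonist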
Conditions: GPR7-expressing cells, fluorescence antagonist assay; at 4.4 µM; hits give high values

Structure (SMILES)	inhibition
COc1cc(I)ccc1[As](=O)(O)O	inactive: -16.2%
COc1ccc2nc(NP(=O)(c3ccccc3)c3ccccc3)sc2c1	inactive: 2.34%
Cc1c2c(nc3ccccc13)SC(C(Cl)Cl)C2 (stereo unspecified)	inactive: -17.6%
Cc1cc(=O)[nH]c(N[N+](=O)[O-])n1	inactive: -2.41%
O=C(OC1CN2CCC1CC2)C12CC3CC(CC(C3)C1)C2 (stereo unspecified)	inactive: 3.88%
COc1ccc(N/C(=N/P(=O)(N2CCOCC2)N2CCOCC2)N2CCOCC2)cc1	inactive: -7.95%
Cc1ccc(OP(=O)(Nc2ccc([N+](=O)[O-])cn2)Oc2ccc(C)cc2)cc1	inactive: -11.3%
Cc1ccc2nc3c(c(C)c2c1)CC(C(Cl)Cl)S3 (stereo unspecified)	inactive: -9.68%
C[As](=O)(O)c1cccc(C(=O)O)c1	inactive: -8.37%
O=[As](O)(c1ccc(O)cc1)c1ccccc1O	inactive: -13.9%
O=[N+]([O-])c1cc([N+](=O)[O-])c(-c2ccn[nH]2)s1	inactive: -3.51%
CCN(CC)C(=S)SC(NC=O)C(Cl)(Cl)Cl (stereo unspecified)	inactive: 6.2%
CC(C)NC(=O)NP(=O)(Oc1ccccc1)Oc1ccccc1	inactive: -8.43%
ClCCSc1nnc(-c2cccnc2)o1	inactive: -2.48%
CC(C)c1ccc(OP(=O)(Nc2ccccn2)Oc2ccccc2F)cc1 (stereo unspecified)	inactive: -9.15%
Cc1cc(SC(NC(=O)c2ccccc2)C(Cl)(Cl)Cl)nc(C(C)C)n1 (stereo unspecified)	inactive: -5.85%
CCCCOc1ccc(C(=O)NCC2(N3CCCCC3)CCCCC2)cc1OC	inactive: -8.24%
CCOC(=O)Nc1ccc([As](=O)(O)O)c(O)c1	inactive: -9.09%
O=P(Nc1ccccn1)(c1cccc2ccccc12)c1cccc2ccccc12	inactive: 2.65%
Cc1cc(SC(NC=O)C(Cl)(Cl)Cl)ncn1 (stereo unspecified)	inactive: 0.49%
O=[N+]([O-])c1ccc(Nc2ccc(Oc3ccc([N+](=O)[O-])cc3[N+](=O)[O-])cc2)c([N+](=O)[O-])c1	inactive: -13.6%
CCOC(=O)Nc1cccc([As](=O)(O)O)c1	inactive: -6.91%

Structure (SMILES)	inhibition
O=C(Nc1ccncc1[N+](=O)[O-])c1ccc([N+](=O)[O-])cc1[N+](=O)[O-]	inactive: -8.32%
O=C(COc1ccccc1)OC1CN2CCC1CC2 (stereo unspecified)	inactive: -3.16%
COP1(=S)c2c(C)nn(CCC#N)c2N=C(c2ccc(F)cc2)N1C (stereo unspecified)	inactive: -2.6%
CCC(C)N(CC(C)C)C(=S)SC(NC(C)=O)C(Cl)(Cl)Cl (stereo unspecified)	inactive: -10.2%
O=C(OC1CN2CCC1CC2)c1cccc([N+](=O)[O-])c1 (stereo unspecified)	inactive: -1.67%
CCOC(=O)c1ccc(NC(=O)C(C)(CCl)SC)cc1 (stereo unspecified)	inactive: -8.48%
CC(C)(C)C(=O)NC(Sc1ncccn1)C(Cl)(Cl)Cl (stereo unspecified)	inactive: -6.75%
Clc1n[nH]nc1-c1nn[nH][15n]1	inactive: -9.8%
CCOP(=O)(NC(=NC(C)c1ccccc1)NC(C)c1ccccc1)OCC (stereo unspecified)	inactive: 4.85%
O=P1(Nc2ccccn2)COc2ccccc2OC1	inactive: -8.17%
CCC1=CC2Cc3nc4ccc(Cl)cc4c(N)c3C(C1)C2 (stereo unspecified)	inactive: 8.19%
CCOP(=O)(Nc1ccc(C)cn1)OCC	inactive: -8.83%
CC(C)/C=N\N=C(\N)N[N+](=O)[O-]	inactive: -7.42%
CC1(CBr)Cn2c(nc3ccccc3c2=O)S1 (stereo unspecified)	inactive: -9.32%
O=[As](O)(c1ccccc1Br)c1ccccc1Br	inactive: -2.68%
CN(C)C1(CNC(=O)c2ccc(S(C)(=O)=O)cc2)CCCCC1	inactive: 7.95%
O=C(/C=C/c1ccccc1)OC1CN2CCC1CC2 (stereo unspecified)	inactive: -2.21%
CC1CCC(C(C)C)C(OP(=O)(Nc2ccccn2)c2ccccc2)C1 (stereo unspecified)	inactive: -7.97%
Cc1ccc(C(=O)OC2CN3CCC2CC3)cc1 (stereo unspecified)	inactive: -12.8%
Cc1nn(-c2ccccc2)c2c1P(=O)(N1CCOCC1)N(C)C(c1ccccc1)=N2 (stereo unspecified)	inactive: -7.13%
Nc1cccc([As](=O)(O)c2ccccc2)c1	inactive: -5.81%
O=P1(Nc2ccc(Br)cn2)COc2ccccc2OC1	inactive: -3.53%

Structure (SMILES)	inhibition
Cc1ccc(OCC(=O)OC2CN3CCC2CC3)cc1 (stereo unspecified)	inactive: 0.51%
O=[As](O)(c1cccs1)c1cccs1	inactive: -3.72%
O=P1(Nc2ncccn2)COc2ccccc2OC1	inactive: -8.57%
Nc1ccccc1[As](=O)(O)c1ccccc1	inactive: -11.4%
O=C(O)COc1ccc([As](=O)(O)O)cc1[N+](=O)[O-]	inactive: 3.6%
O=P(Nc1nccs1)(c1ccccc1)c1nc2ccccc2s1 (stereo unspecified)	inactive: -6.27%
O=P(Nc1nccs1)(Oc1ccccc1)Oc1ccccc1	inactive: -16%
CCOP1(=S)c2c(C)nn(CCC#N)c2N=C(c2ccccc2F)N1C (stereo unspecified)	inactive: 4.59%
CS(=O)(=O)c1cc([N+](=O)[O-])c2no[n+]([O-])c2c1	inactive: -9.73%
CCOP1(=S)c2c(C)nn(CCC#N)c2N=C(c2ccc(F)cc2)N1C (stereo unspecified)	inactive: 1.47%
O=[N+]([O-])c1ccc2c(c1)nnn2O	inactive: -4.72%
O=[As](O)(c1cccc(O)c1)c1cccc(O)c1	inactive: -6.35%
Cc1cccc(OCC(=O)OC2CN3CCC2CC3)c1 (stereo unspecified)	inactive: -11.2%
O=C(OC1CN2CCC1CC2)c1ccc(Cl)cc1 (stereo unspecified)	inactive: -8.81%
CS(=O)(=O)c1ccc(Cl)c(NC(=O)COC(=O)C(O)(c2ccccc2)c2ccccc2)c1	inactive: -9.94%
COc1cc(C(=O)NCC2(N3CCOCC3)CCCCC2)cc(Cl)c1OC(C)C	inactive: -12.1%
O=[As](O)(O)c1cccnc1	inactive: -13.2%
CCOP(=O)(Nc1cccc2ccccc12)OCC	inactive: 3.45%
COc1cc(C2NCCC3(OCCO3)C2(C)C)cc(OC)c1OC (stereo unspecified)	inactive: -10%
Cc1ccc(NCCc2c([N+](=O)[O-])cc([N+](=O)[O-])cc2[N+](=O)[O-])cc1	inactive: -6.45%
Nc1cccc2c([As](=O)(O)O)cccc12	inactive: -7.3%
CCCOP(=S)(Nc1nc(N)cc(=O)[nH]1)OCCC	inactive: -8.19%
